From patent US20100287663A1, “METHODS FOR PRODUCING PLANTS WITH ALTERED LEVELS OF SULPHATED SECONDARY METABOLITES” (PLANT BIOSCIENCE LIMITED, priority 2009, published 2010)

B1: Arabidopsis thaliana APS kinase Apk2 (At4g39940), recombinant, without target peptide (Arabidopsis thaliana) (protein)
chain: AVNVSAQASLTADFPALSETILKEGRNNGKEKAENIVWHESSICRCDRQQLLQQKGCVVWITGLSGSGKSTVACALSKALFERGKLTYTLDGDNVRHGLNRDLTFKAEHRTENIRRIGEVAKLFADVGVICIASLISPYRRDRDACRSLLPDGDFVEVFMDVPLHVCESRDPKGLYKLARAGKIKGFTGIDDPYEAPVNCEVVLKHTGDDESCSPRQMAENIISYLQNKGYLEG
B2: Arabidopsis thaliana APS kinase Apk3 (At3g03900), recombinant (Arabidopsis thaliana) (protein)
chain: MSTVGNSTNIFWQESPIGKTERQKLLNQKGCVVWITGLSGSGKSTLACSLSRELNNRGKLSYILDGDNLRHGLNKDLGFKAEDRVENIRRVGEVAKLFADAGLICIASLISPYRKDRDACREMIQNSSFIEVFMNMSLQLCEARDPKGLYKLARAGKIKGFTGIDDPYESPLNCEIELKEKEGECPSPVAMAEEVISYLEDKGFLQNE
B3: Arabidopsis thaliana APS kinase Apk1 (At2g14750), recombinant, without target peptide (Arabidopsis thaliana) (protein)
chain: VSMDGSQTLSHNKNGSIPEVKSINGHTGQKQGPLSTVGNSTNIKWHECSVEKVDRQRLLDQKGCVIWVTGLSGSGKSTLACALNQMLYQKGKLCYILDGDNVRHGLNRDLSFKAEDRAENIRRVGEVAKLFADAGIICIASLISPYRTDRDACRSLLPEGDFVEVFMDVPLSVCEARDPKGLYKLARAGKIKGFTGIDDPYEPPLNCEISLGREGGTSPIEMAEKVVGYLDNKGYLQA
B4: Arabidopsis thaliana APS kinase Apk4 (At5g67520), recombinant, without target peptide (Arabidopsis thaliana) (protein)
chain: SGETKQINGKQKNIVWHDCPVTKSDRQELIKQKGCVIWITGLSGSGKSSLACALSRALHNRGKLSYILDGDNVRHGLNSDLSFEADDRAENIRRVGEVAKLFADSGIICIASLISPYRIERAACRALLPQGDFIEVFMDVPLHVCEARDPKGLYKRARAGKIKGFTGVDDPYEAPLDCEIVIQNSRDKGLSSSSSSSSSPSSSSSSLCEMADIVVSYLDQNGYLKKHSTKSRNCM

Columns and labels:
[1] = biological target: Arabidopsis thaliana APS kinase Apk4 (At5g67520), recombinant, without target peptide (Arabidopsis thaliana, UniProt Q84JF0); conditions: Apk4, expressed in E. coli, purified
[2] = biological target: Arabidopsis thaliana APS kinase Apk3 (At3g03900), recombinant (Arabidopsis thaliana, UniProt Q9SRW7); conditions: Apk3, expressed in E. coli, purified
[3] = biological target: Arabidopsis thaliana APS kinase Apk1 (At2g14750), recombinant, without target peptide (Arabidopsis thaliana, UniProt Q43295); conditions: Apk1, expressed in E. coli, purified
[4] = biological target: Arabidopsis thaliana APS kinase Apk2 (At4g39940), recombinant, without target peptide (Arabidopsis thaliana, UniProt O49196); conditions: Apk2, expressed in E. coli, purified
[5] = substrate: Nc1ncnc2c1ncn2[C@@H]1O[C@H](COP(=O)(O)OS(=O)(=O)O)[C@@H](O)[C@H]1O; assay: purified protein, by the assay type; conditions: 28.0 °C

Molecule	Km [5]	further results
Nc1ncnc2c1ncn2[C@@H]1O[C@H](COP(=O)(O)OS(=O)(=O)O)[C@@H](O)[C@H]1O [APS, adenosine-5′-phosphosulphate]	–	Vmax [1]: 12.7 units mg units mg protein^−1; Vmax [2]: 12.4 units mg units mg protein^−1; Vmax [3]: 20.1 units mg units mg protein^−1; Vmax [4]: 10.6 units mg units mg protein^−1
B1	1.0 μM μM	–
B2	7.4 μM μM	–
B3	5.3 μM μM	–
B4	2.1 μM μM	–
